# AlphaSeq binding of Ab-95 light chain variants to a spike HR2 peptide

Antigen: PDVDLGDISGINAS, a 14-residue peptide of the SARS-CoV-2 spike HR2 region.

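Phage display of a naive human antibody library on the peptide gave the parent. Variants in AAYL52 differ from the parent at up to three CDR positions; double and triple changes were sampled at random. In AlphaSeq, yeast of one mating type display the scFv and yeast of the other type display the target. Binding brings cells together so that they mate, and sequencing counts the barcode pairs among the diploids. Each replicate has its own calibration line, from reference interactions of the BCL2 family. Mating was done three times.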

The variants keep the heavy chain, the linker and the frameworks of Ab-95 (scFv order VH, three GGGGS repeats, VL).
VH: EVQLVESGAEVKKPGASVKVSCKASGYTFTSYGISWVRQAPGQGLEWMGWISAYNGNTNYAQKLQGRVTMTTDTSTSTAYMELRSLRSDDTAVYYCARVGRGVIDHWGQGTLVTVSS
VL: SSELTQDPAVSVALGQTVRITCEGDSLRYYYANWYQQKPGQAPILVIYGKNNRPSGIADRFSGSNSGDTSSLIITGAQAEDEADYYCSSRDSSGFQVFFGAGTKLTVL

The parent's light chain CDRs are EGDSLRYYYAN, GKNNRPS, SSRDSSGFQVF; each variant's own CDRs replace them letter for letter. The read-out is the apparent dissociation constant on a log10 scale (nM): the lower, the stronger. "nd" marks a missing value. The strain was present, yet no cells mated with the target were sequenced in that replicate, which points to weak or no binding. Three control strains display no target. For library AAYL52, 28% of the pairings with them gave a signal, with a median of 3.91 and one signal in twenty below 2.90, so weak values seen in few replicates may be background. Also given: how often the same scFv was detected with the empty control strains, with their mean in brackets.

CDR-L1	CDR-L2	CDR-L3	log10 Kd, replicates	empty controls
EGDSLRSYYAN	GKNNRPS	ISRDSSGFQAF	1.66 1.59 1.41	1/9 (4.71)
EGDSLLYYYAN	GKNNRPS	SCRDSSGFQVG	2.57 2.19 2.09	6/9 (4.20)
EGDSSRYYYAN	GKNNRVS	SSRDSSGYQVF	4.47 4.05 3.29	4/9 (4.20)
EGDELRYYSAN	GKNNRPS	SSRDSSWFQVF	3.97 3.34 3.44	1/9 (3.71)
EGDSLRYYYAN	GKHNQPS	SSRDSSGFQVF	4.69 4.43 nd	4/9 (4.35)
SGDSLRYYYAN	GANNRHS	SSRDSSGFQVF	2.77 2.75 3.00	3/9 (4.26)
EGDSLYYYYAN	GKNNRPS	SSRDSSNFIVF	2.47 2.47 3.76	4/9 (4.00)
EGDSLRYYYAS	MKNNRPS	SSRDSSGFQVF	3.50 nd nd	3/9 (3.07)
MGDSLRYYYAN	AKNNRPS	SSRDSSGFQVF	nd 3.13 2.83	1/9 (4.59)
EGDSLRYYSAN	GKNNRPS	SSRDSSKFWVF	1.64 1.33 1.28	8/9 (3.90)
LGDALRYYYAN	GKNNRPS	SSRDSSGFTVF	3.72 nd 2.98	5/9 (3.64)
EGDSLRYQTAN	GKNNRSS	SSRDSSGFQVF	0.95 0.72 0.26	3/9 (3.70)
EGDSLRAYYAN	GKNSRPS	SSRDSSGFQEF	nd nd nd	0/9
EGDSLRTYYAN	GKNNRPS	SSRDSSGWVVF	2.49 2.83 2.36	4/9 (4.07)
EGDSLRYYYAN	GKNNRPS	DSRDSSGFDVF	2.67 2.04 2.11	3/9 (3.81)
EGDSLNYYYAD	GKNNRPS	SSRDSHGFQVF	nd nd nd	0/9
EDDSLRYYYAN	YKNNRTS	SSRDSSGFQVF	nd nd nd	0/9
EGDSLRYYYAN	GMYNRPS	SSQDSSGFQVF	5.27 4.73 4.03	2/9 (4.82)
EGDSHRYYYAN	GKNNRPS	SSRDSSGIQTF	nd nd nd	0/9
NGDSLRYYYTN	GKNNRMS	SSRDSSGFQVF	1.93 1.96 1.07	4/9 (3.47)
EGDSLRYYYAN	GKQQRMS	SSRDSSGFQVF	2.39 2.26 1.97	3/9 (3.45)
EGDSLRYYYAN	GKNNRPS	SSRDSFGFQKV	4.25 3.91 nd	1/9 (4.08)
EGDSLCYYYAN	GKNNRGS	SSRDSSGFQEF	3.60 3.22 2.96	0/9
EGDSLRYSYAN	GKNNRPP	SSRDSSGFQVF	2.43 2.36 2.22	1/9 (4.50)
EGLSLRYYYAN	GKNNRPS	NSRDSSGKQVF	3.08 nd nd	1/9 (2.60)
EGDSLRYYYMN	GKNNNPP	SSRDSSGFQVF	2.58 2.33 2.25	7/9 (4.07)
EGDSGRYYYAN	GKNNRPN	SSRDSSGFDVF	nd 2.75 3.95	1/9 (3.77)
KGDSLRYYYAN	GKNNRPS	DSRDSSGFQVG	2.12 1.93 1.51	4/9 (4.31)
EFDSHNYYYAN	GKNNRPS	SSRDSSGFQVF	2.65 3.35 2.81	3/9 (3.73)
EGDSVRYYYAN	GKNNRPS	SIRDSSTFQVF	nd nd 4.22	2/9 (4.03)
EGDYYRYYYAN	GKNNRPS	SSMDSSGFQVF	nd nd 3.79	3/9 (3.51)
EGDSLRYKYAN	GKNFRPS	SSRDSSGFQIF	nd 3.17 nd	1/9 (3.73)
EGDSLRYYYAN	GKNQRPS	SSYDSSGFKVF	nd nd nd	1/9 (2.87)
ECDSLRYYYAN	GTNNRPS	SSRDSKGFQVF	3.96 4.79 4.06	7/9 (3.56)
EGDSLIYYYRN	GKNNRPS	SSRDSSGDQVF	5.23 5.77 nd	1/9 (5.01)
TGDSLRYYYAN	GKNNYPS	SSRDNSGFQVF	3.50 3.58 2.95	1/9 (3.96)
ELDSLRYYYCN	GKNNGPS	SSRDSSGFQVF	3.97 nd nd	3/9 (3.71)
EGDSLRYYYAY	GKLNRPS	SSRDSVGFQVF	3.83 nd nd	3/9 (4.71)
EGDSLRYYYAS	GKNNRPS	SARDSSGPQVF	3.82 3.83 4.01	4/9 (3.93)
EGDSLRYYEAN	GKNNRPS	SSRDSSGFQVF	1.28 1.05 0.65	2/9 (4.03)
EGDLLRYYYAN	VKSNRPS	SSRDSSGFQVF	nd nd nd	1/9 (4.34)
EGQSCLYYYAN	GKNNRPS	SSRDSSGFQVF	5.13 3.78 nd	1/9 (4.44)
EGDSLRWYYSN	GKNNRPS	SSRDSSGCQVF	4.35 3.68 3.17	3/9 (3.39)
EGDFLRYYYAN	GVNNRPS	SSRDSSGFQTF	4.01 nd nd	0/9
EGDSLRMYYAN	GKNNFNS	SSRDSSGFQVF	5.48 nd nd	2/9 (3.72)
EGDSARYYYAN	GKNNRPS	YSRDGSGFQVF	2.62 3.10 nd	0/9
EGDSLRYYYAN	GKNNNPS	SNRDSSFFQVF	nd nd nd	5/9 (4.09)

A selection of 4 entries from above:

CDR-L1,CDR-L2,CDR-L3,"log10 Kd, replicates",empty controls
EGDSLNYYYAD,GKNNRPS,SSRDSHGFQVF,nd nd nd,0/9
EGDSLRYYSAN,GKNNRPS,SSRDSSKFWVF,1.64 1.33 1.28,8/9 (3.90)
EGDSLRYSYAN,GKNNRPP,SSRDSSGFQVF,2.43 2.36 2.22,1/9 (4.50)
EGDSLRYYYAN,GKHNQPS,SSRDSSGFQVF,4.69 4.43 nd,4/9 (4.35)

Data: MIT Lincoln Laboratory AlphaSeq set, Engelhart et al. 2022, doi:10.1038/s41597-022-01779-4, as distributed in FLAb.